Bioassay records from PubChem BioAssay.
miR-21 reporter – miR-21 reporter, rising signal | HeLa miR-21 FLuc reporter, luciferase, 48 h | Potency, µM (highest dose often 38.3 µM), for inactives: at the top dose reporter change, positive = more light | 340,000 tested, under 10 active | AID 2288; active = well fitted rising curve with a large enough effect; inconclusive = small, poorly fitted or top-dose-only effect; inactive = no such curve, though single readings can be large or run the other way;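 further: % of control where 0% means no effect; miR-21 action dims this reporter so a rising signal means less miR-21 action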
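Using DMEM plus 10% FBS, HeLa miR-21-FLuc cells are incubated with test compounds (final up to about 40uM) for 48 hours; firefly luciferase signal is then imaged following reagent-mediated lysis.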
A549 tox – counter-screen for Nrf2 inhibitors: cytotoxicity in A549 cells; actives 0.16% (n = 390,000); AID 504648; Potency, µM (doses to about 46 µM), for the others: at the top dose activity change, negative = cytotoxicity, hits mostly inhibitors; A549 ARE-Fluc cells, CellTiter-Fluor viability, 18-24 h; further: potency means the concentration at half of the fitted maximal effect; on the % scale 0 is the no-effect control and ±100 the full control effect
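Cytotoxicity counterscreen: CellTiter-Fluor fluorescence was measured in A549 ARE_Fluc cells after 18-24 h of compound exposure in a concentration series. The subsequent BugLite luminescent read reports ARE-luciferase activity.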
TCR act – activates T cell receptor signaling; AID 504894; primary human leukocytes, anti-CD3, IL-2 HTRF, 48 h; Potency, µM (series often up to 9.22 µM), for inactives: top-dose activation of IL-2 secretion, usual class: activators; 330,000 tested, under 10 active; further: % of control where 0% means no effect
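Primary human leukocytes were stimulated with a-CD3 beads plus compounds for 48 hr without co-stimulation; secreted IL-2 was quantified by HTRF using a-IL-2-K (europium cryptate) and a-IL-2-d2, excited at 320nm with acceptor emission read at 665nm.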
Nrf2 activator – activators of Nrf2 (ARE) signaling. AREc32 ARE-luciferase reporter (MCF7-derived line), luminescence, 24 h. Potency, µM (titrated, usually from 46.1 µM), inactives show at the highest dose activation, usual class: activators. actives 0.31% (n = 410,000); further: potency means the concentration at half of the fitted maximal effect; % of control where 0% means no effect; nearly all actives have a fitted effect of over 65% in size
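Luciferase luminescence (Steady-Glo, 30 min at room temperature) served as the read-out of ARE activation in AREc32 cells treated with compounds for 24 hr at 37 deg C.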
ClpP mod – qHTS Assay for Activators of ClpP; Potency, µM (titrated, usually from 57.5 µM), for the others: at the top dose activity change, negative = active; purified B. subtilis ClpP, FRET peptide cleavage, 20 min; actives 1.9% (n = 340,000); ATP-dependent Clp protease proteolytic subunit (Bacillus subtilis (strain 168)), P80244; active means well fitted falling curve with a large enough effect; inconclusive means small, poorly fitted or top-dose-only effect; inactive means no such curve, though single readings can be large or run the other way; further: potency means the concentration at half of the fitted maximal effect; the source files actives as falling curves though it sought activators and does not explain the sign; nearly all actives have a fitted effect of over 65% in size
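Purified B. subtilis ClpP, 10 microg/mL final in Tris/HCl pH8 with KCl, BSA, glycerol and Tween-20, cleaved an Abz/nitrotyrosine-quenched decapeptide. Fluorescence (ex 320, em 430) was read at 0 and 20 min at room temperature. Delta was normalized to 5.8 microM ADEP and DMSO/no-enzyme controls.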
Nrf2 inh – Nrf2 pathway inhibition. A549 ARE-Fluc reporter, luciferase luminescence, 18-24 h. Potency, µM (top dose mostly 46 µM), for the others: at the top dose activity change, negative = inhibition, most hits filed as inhibitors. actives 2.1% (n = 360,000); further: potency means the concentration at half of the fitted maximal effect; on the % scale 0 is the no-effect control and ±100 the full control effect; nearly all actives have a fitted effect of over 60% in size
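Concentration-response testing used A549 ARE_Fluc cells at 5000 cells/well. Following an 18-24 h compound incubation, viability was read by fluorescence (Ex 405/Em 525) and luciferase output by luminescence.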
Starred values were filed as active, the others as inactive; ? = inconclusive; nt = no result; [ ] = dose if it differs, or a comment. The list is not random: actives were taken first. Their share in the collection is about 3.7%. Unless noted, the call rests on the fitted dose curve; in most records, active means well fitted curve in the direction sought with a large enough effect; inconclusive means small, poorly fitted or top-dose-only effect, or another doubt; inactive means no such curve, though single readings can be large; an effect the other way counts as inactive or inconclusive.

1) CCOC(=O)c1ccc(NC(=O)Cn2nnc(-c3ccc(C(F)(F)F)cc3)n2)cc1
2) Cc1ccc(OCC(=O)O)c(O)c1
3) COc1ccc(Cc2nnc(C(=O)NCCCN3CCN(c4ccccc4F)CC3)o2)cc1OC
4) O=C(NCCCN1CCN(c2ccccc2F)CC1)c1nnc(Cc2ccc(Cl)cc2Cl)o1
5) Cc1ccc(-c2cc(C(=O)Nc3ccccc3C(N)=O)c3ccccc3n2)o1

Screen / compound no.	1	2	3	4	5
miR-21 reporter	-1%	nt	?	21%	nt
A549 tox	-3%	1%	-2%	-15%	-1%
Nrf2 inh	0%	7%	?	18µM*	-9%
TCR act	nt	-3%	nt	nt	-4%
ClpP mod	0%	1%	-2%	-1%	nt
Nrf2 activator	0%	-1%	4%	4%	8%

6) COc1ccc(-c2cc(C(=O)Nc3ccccc3N3CCOCC3)c3ccccc3n2)cc1OC
7) COc1ccc(NC(=O)c2cc3c(Cl)nc4ccccc4c3s2)cc1OC
8) O=C(Nc1ccccc1N1CCOCC1)c1cc(-c2ccncc2)nc2ccccc12
9) Cc1ccc(-c2cc(C(=O)N(C)CC(=O)Nc3ccccc3Br)c3ccccc3n2)o1
10) COc1ccc(NC(=O)c2cc(-c3ccc(C)o3)nc3ccccc23)cc1OC

Screen / compound no.	6	7	8	9	10
miR-21 reporter	22%	-15%	15%	nt	-14%
A549 tox	-17%	-28%	-8%	-4%	-2%
Nrf2 inh	15µM*	10µM*	?	6%	nt
TCR act	-3%	-8%[46.1 µM]	-1%	1%	14%
ClpP mod	nt	-14%	nt	25µM*	3.5µM*
Nrf2 activator	4%	-1%	3%	5%	?

11) COc1cc2nc(SCC(=O)Nc3cccc(C)c3)n3nc(CCn4c(C)nc5ccccc54)nc3c2cc1OC
12) O=C(Cc1nnc(CNC(=O)c2ccccc2)s1)Nc1ccc(C(F)(F)F)cc1Cl
13) O=C(O)c1ccc(S(=O)(=O)N[C@H](Cc2ccc(C(F)(F)F)cc2)C(=O)O)cc1
14) COc1ccc(-c2cc(C(=O)N3CCCC(C(F)(F)F)C3)c3ccccc3n2)cc1 (centres undefined)
15) CCOc1cc(N2CCOCC2)c(OCC)cc1NC(=O)COc1ncnc2ccccc12

Screen / compound no.	11	12	13	14	15
miR-21 reporter	0%	nt	nt	nt	-6%
A549 tox	0%	-1%	0%	-4%	3%
Nrf2 inh	-43%	2%	3%	-13%	-7%
TCR act	nt	nt	nt	-3%	-1%
ClpP mod	-6%	nt	nt	3%	-1%
Nrf2 activator	6%	nt	nt	4%	0%

Single records, as listed above. Screens in order: miR-21 reporter	A549 tox	Nrf2 inh	TCR act	ClpP mod	Nrf2 activator
Results for CCOc1cc(N2CCOCC2)c(OCC)cc1NC(=O)COc1ncnc2ccccc12 → -6%	3%	-7%	-1%	-1%	0%
Results for O=C(Cc1nnc(CNC(=O)c2ccccc2)s1)Nc1ccc(C(F)(F)F)cc1Cl → nt	-1%	2%	nt	nt	nt
Results for O=C(O)c1ccc(S(=O)(=O)N[C@H](Cc2ccc(C(F)(F)F)cc2)C(=O)O)cc1 → nt	0%	3%	nt	nt	nt
Results for COc1cc2nc(SCC(=O)Nc3cccc(C)c3)n3nc(CCn4c(C)nc5ccccc54)nc3c2cc1OC → 0%	0%	-43%	nt	-6%	6%

Further records follow.
16) CCOc1cc(N2CCOCC2)c(OCC)cc1NC(=O)c1cc(-c2ccco2)nc2ccccc12
17) Cc1ccc(-c2cc(C(=O)N3CCCC(C(F)(F)F)C3)c3ccccc3n2)o1 (centres undefined)
18) CC(=O)C1=C(C)OC(N)=C(C#N)C1c1cc([N+](=O)[O-])ccc1Cl (centres undefined)
19) CC(=O)C1=C(C)OC(N)=C(C#N)C1c1cccc([N+](=O)[O-])c1 (centres undefined)
20) CN(C)c1cc(F)c(C=O)cc1F

Screen / compound no.	16	17	18	19	20
miR-21 reporter	12%	nt	17%	-4%	nt
A549 tox	?	2%	3%	5%	nt
Nrf2 inh	15µM*	-2%	1%	-24%	nt
TCR act	4%	-5%	0%	-8%	nt
ClpP mod	5%	16µM*	nt	nt	1%
Nrf2 activator	4%	0%	13µM*	4%	nt

21) O=C(CSc1nc(-c2ccc(Cl)cc2)cs1)Nc1cccc([N+](=O)[O-])c1
22) CCOC(=O)COc1ccccc1/C=N\NC(=O)c1cc2c(ccc3ccccc32)o1
23) CC(C)(C)Cc1c(-c2ccc(Cl)cc2)nc2c(Cl)cc(C(F)(F)F)cn12
24) CCN(CC)S(=O)(=O)c1cccc(NC(=O)C2CC(=O)N(c3ccc4c(c3)OCCO4)C2)c1 (centres undefined)
25) Cc1cnc(NC(=O)C2CC(=O)N(c3ccc4c(c3)OCCO4)C2)s1 (centres undefined)

Screen / compound no.	21	22	23	24	25
miR-21 reporter	21%	-1%	nt	nt	nt
A549 tox	-21%	9%	nt	-14%	-12%
Nrf2 inh	16µM*	5%	nt	23µM*	14%
TCR act	-2%[46.1 µM]	-1%	nt	-2%	-8%[46.1 µM]
ClpP mod	-1%	28µM*	-9%	nt	28µM*
Nrf2 activator	19%	1%	0%	0%	0%

26) CCc1cccc(CC)c1NC(=O)C1CC(=O)N(c2ccc3c(c2)OCCO3)C1 (centres undefined)
27) O=C(NCC1(N2CCCCC2)CCCCC1)C1CC(=O)N(c2ccc3c(c2)OCCO3)C1 (centres undefined)
28) COC(=O)/C=C1\OCc2ccccc21
29) COC(=O)c1c(NC(=O)Cn2cc([N+](=O)[O-])cn2)sc2c1CCC2
30) O=C(Cn1cc([N+](=O)[O-])cn1)NC1CCCCCC1

Screen / compound no.	26	27	28	29	30
miR-21 reporter	1%	-1%	nt	-3%	0%
A549 tox	-4%	-2%	nt	-1%	1%
Nrf2 inh	-5%	2%	nt	nt	6%
TCR act	-3%	-3%	nt	-3%	-2%
ClpP mod	0%	8.9µM*	0%	13µM*	nt
Nrf2 activator	0%	0%	nt	0%	0%

31) COC(=O)c1c(NC(=O)CN2C(=O)NC3(CCCCC3C)C2=O)sc2c1CCC2 (centres undefined)
32) O=C(COc1ccc(C(=O)c2ccc(F)cc2)cc1)Nc1cccc(S(=O)(=O)N2CCOCC2)c1
33) O=C(COC(=O)CCC(=O)c1ccc(F)cc1)Nc1cccc(S(=O)(=O)N2CCOCC2)c1
34) Cc1cc(S(=O)(=O)N2CCOCC2)ccc1OCC(=O)Nc1ccc(F)c(Cl)c1
35) Cc1cc(S(=O)(=O)N2CCOCC2)ccc1OCC(=O)Nc1ccc(F)cc1

Screen / compound no.	31	32	33	34	35
miR-21 reporter	nt	nt	0%	-1%	0%
A549 tox	-14%	-13%	-2%	-1%	5%
Nrf2 inh	16µM*	23µM*	1%	-23%	1%
TCR act	-32%	3%	7%	8%	1%
ClpP mod	-24%	12%	1%	nt	13µM*
Nrf2 activator	0%	5%	0%	0%	0%

36) CCOC(=O)c1ccc(-n2cnc3c(c2=N)C(c2cccc(OC)c2)c2c(ccc4ccccc24)O3)cc1 (centres undefined)
37) Cc1ccc(NC(=O)CSc2nc3ccccc3c3nc(CCc4c(C)n[nH]c4C)nn23)cc1F
38) Cc1n[nH]c(C)c1CCc1nc2c3ccccc3nc(SCC(=O)Nc3ccc(F)cc3)n2n1
39) CCOc1ccccc1NC(=O)C1CCCN(S(=O)(=O)c2cccs2)C1 (centres undefined)
40) CC(C)Oc1ccc(Cn2c(-c3ccco3)n[nH]c2=S)cc1
41) CCC(C(=O)NC1CCCC1)N(C(=O)Cn1nnc(-c2ccc(C)o2)n1)c1cccc(OC)c1 (centres undefined)

Screen / compound no.	36	37	38	39	40	41
miR-21 reporter	nt	-4%	26%	1%	-41%	0%
A549 tox	-1%	?	-15%	4%	0%	-2%
Nrf2 inh	-1%	13µM*	nt	-26%	6%	6%
TCR act	nt	-2%	nt	nt	-3%[46.1 µM]	-2%
ClpP mod	nt	2%	-1%	1%	28µM*	-1%
Nrf2 activator	nt	0%	-1%	0%	0%	-1%
